The source of these data is publication PMC9299415 (Molecular Neurobiology, 2022).

By UniProt entry, the sequences of proteins in these tests, tags left out. Residues count along the entry.
UniProt P36544, 23-502: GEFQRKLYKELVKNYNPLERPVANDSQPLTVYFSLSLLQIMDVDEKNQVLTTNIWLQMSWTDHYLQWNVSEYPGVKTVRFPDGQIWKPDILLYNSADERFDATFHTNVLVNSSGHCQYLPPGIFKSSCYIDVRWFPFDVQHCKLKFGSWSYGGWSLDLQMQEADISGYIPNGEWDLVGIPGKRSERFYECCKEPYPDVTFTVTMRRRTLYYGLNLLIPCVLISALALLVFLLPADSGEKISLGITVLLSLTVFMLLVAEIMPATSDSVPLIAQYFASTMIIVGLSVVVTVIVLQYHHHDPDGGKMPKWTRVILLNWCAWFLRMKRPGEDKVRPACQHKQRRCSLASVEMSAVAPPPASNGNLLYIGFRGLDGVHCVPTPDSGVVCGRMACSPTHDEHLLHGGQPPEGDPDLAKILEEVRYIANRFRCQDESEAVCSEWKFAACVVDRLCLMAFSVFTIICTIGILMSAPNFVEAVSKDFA

Experiment [1] has as its system human α7 nAChR. It counts as cell-based. The note with it: n = 15, N = 3.
Experiment [2] relates to human α7 nAChR. Conditions: MLA 100 nM; 10 μM ACh + 1 μM PNU-120596; n = 3.
In experiment [3] the test system is human α7 nAChR. It counts as cell-based.
Experiment [4] has as its target T1, human α7 nAChR (Homo sapiens, UniProt P36544). Format: cell-based.
In experiment [5] the target is T1, human α7 nAChR. Format: cell-based. This is another data set of the same source.
For experiment [6], the target named is T1, human α7 nAChR. Nature of the experiment: cell-based.
Experiment [7] has as its target T1, human α7 nAChR. It counts as cell-based. This is another data set of the same source.

The structures appear in SMILES notation.

Regarding `COc1cc(OC)c(NC(=O)Nc2cc(C)on2)cc1Cl` [PNU-120596, N-(5-Chloro-2,4-dimethoxyphenyl)-N’-(5-methyl-3-isoxazolyl)-urea], the “macroscopic currents of either compound on its own” value in the experiment with human α7 nAChR [1] was “neither Y674-R685 nor PNU-120596 on their own elicited currents”.
In the case of `CCN1C[C@]2(COC(=O)c3ccccc3N3C(=O)C[C@H](C)C3=O)CC[C@H](OC)[C@@]34[C@@H]5C[C@H]6[C@H](OC)[C@@H]5[C@](O)(C[C@@H]6OC)[C@@](O)([C@@H](OC)[C@H]23)[C@@H]14` [MLA, methyllycaconitine], the “effect on duration of clusters or bursts” value with human α7 nAChR [2] is given as “No reduction in the duration of clusters or bursts”.
Take `CC(=O)OCC[N+](C)(C)C` [ACh, Acetylcholine]: in the experiment with human α7 nAChR [3], the “macroscopic current response evoked by ACh” value is “robust responses”.
Regarding `C[C@H](NC(=O)[C@H](CCCNC(=N)N)NC(=O)[C@H](CCCNC(=N)N)NC(=O)[C@@H]1CCCN1C(=O)[C@H](CO)NC(=O)[C@H](CC(N)=O)NC(=O)[C@@H](NC(=O)[C@H](CCC(N)=O)NC(=O)[C@@H](NC(=O)[C@H](CCC(N)=O)NC(=O)[C@@H](N)Cc1ccc(O)cc1)[C@@H](C)O)[C@@H](C)O)C(=O)N[C@@H](CCCNC(=N)N)C(=O)O` [Y674-R685], on human α7 nAChR [4], the “reduction of maximal currents elicited by ACh (Imax)” value was 30 ± 4%. Besides, on human α7 nAChR [5], the “reduction of cluster duration” value is 78%. Further, at human α7 nAChR [6], the half-inhibitory concentration (IC50) was 1800 ± 800 nM and the “IC50 range in words” value is “low-micromolar range”.
On to `Oc1ccc2[nH]ccc2c1` [5-HI, 5-hydroxyindole], for which, on human α7 nAChR [7], the “increase of duration of slowest open component by PAM” value is reported as “fourfold longer” and the “increase of mean burst duration by PAM” value is listed as “eightfold longer”.
